One experiment deals with Prothrombin (Bos taurus, UniProt P00735). Nature of the experiment: Inhibition of amidase activity of bovine thrombin using BANA as substrate after 15 to 40 mins. In a few lines:
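Bovine thrombin (topical preparation), 44.44 NIH units per assay, with Nα-benzoyl-DL-arginine-p-nitroanilide (BANA) as substrate. Run at pH 8.1 and 37° for 15-40 min. Initial velocities were measured at two substrate concentrations across a range of inhibitor concentrations. Ki was obtained graphically from Dixon plots as a competitive constant; mean ± SD, n = 3.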

In a further experiment the target is Prothrombin (Bos taurus) (UniProt P00735). Briefly: Inhibition of bovine thrombin-mediated blood clotting formation in presence of human fibrinogen.

The molecule `Cl.N=C(N)c1cccc(COc2cccc3c(OCc4cccc(C(=N)N)c4)cccc23)c1` gave a Ki on Prothrombin of 2.9 µM. Further, at Prothrombin (Bos taurus), the IC50 turned out to be 20 µM.
The matching figures for `Cl.N=C(N)c1ccc(COc2cccc3c(OCc4ccc(C(=N)N)cc4)cccc23)cc1`: 5.1 µM and 80 µM.

As a reminder, the Ki is the equilibrium dissociation constant of an inhibitor or competing ligand from its target. A high value points to weaker binding. Broadly, the IC50 is the concentration that gives 50% inhibition.

The values are drawn from ChEMBL document CHEMBL3271968, “Novel bis(benzamidino) compounds with an aromatic central link. Inhibitors of thrombin, pancreatic kallikrein, trypsin, and complement” (J Med Chem, 1976).
